Experimental data published in FireProtDB (doi:10.1093/protein/gzw014).

Conditions: Homo sapiens; pH 6.5; 21.5 °C; Urea; Fluorescence; Potassium phosphate 50 mM; KCl 100 mM; transition: 2; reversible: yes; whole UniProt chain shown

B1: Peptidyl-prolyl cis-trans isomerase FKBP1B wild type, P68106 (protein)
chain: MGVEIETISPGDGRTFPKKGQTCVVHYTGMLQNGKKFDSSRDRNKPFKFRIGKQEVIKGFEEGAAQMSLGQRAKLTCTPDVAYGATGHPGVIPPNATLIFDVELLNLE
Question: For B1, which unfolding free energy is on record?
Answer: 21.2 kJ/mol
